Amino acid sequences for entries named in this document (tags omitted). Residues count along the entry.
UniProt Q9NP99, 21-234 limits assumed: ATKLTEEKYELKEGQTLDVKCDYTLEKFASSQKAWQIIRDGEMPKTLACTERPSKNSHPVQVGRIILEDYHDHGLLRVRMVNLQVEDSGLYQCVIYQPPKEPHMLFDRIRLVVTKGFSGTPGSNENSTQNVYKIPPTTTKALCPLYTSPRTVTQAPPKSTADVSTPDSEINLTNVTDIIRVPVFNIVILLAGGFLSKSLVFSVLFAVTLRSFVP
UniProt Q9NP99, 21-205 limits assumed: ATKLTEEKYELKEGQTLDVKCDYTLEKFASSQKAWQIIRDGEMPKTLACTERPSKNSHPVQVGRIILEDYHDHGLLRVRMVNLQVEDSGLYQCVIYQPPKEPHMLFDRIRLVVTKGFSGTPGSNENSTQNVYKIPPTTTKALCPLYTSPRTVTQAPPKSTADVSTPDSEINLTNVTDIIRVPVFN

According to patent publication US20240279332A1 (Amgen, published 2024):

Experiments:
[1] = target: T1, human TREM-1 (TrigGering Receptor Expressed on Myeloid cells 1) on cells (human, UniProt Q9NP99 21-234); assay: cell-based or functional assay
cyno TREM-1 on cells [2] = target: T2, cyno TREM-1 on cells (cynomolgus monkey, UniProt A0A2K5VHG8 21-233); assay: FACS on HEK293 co-transfected with cyno TREM-1 and DAP12; hybridoma supernatant 2.5 ug/mL; geomean fold over irrelevant control antibody
T2 construct: whole, on cells; On HEK293 cells co-transfected with DAP12, or native on cynomolgus PBMCs; also called cynomolgus TREM-1; TREM-1 receptor in cynomolgus monkey PBMCs
T2 sequence: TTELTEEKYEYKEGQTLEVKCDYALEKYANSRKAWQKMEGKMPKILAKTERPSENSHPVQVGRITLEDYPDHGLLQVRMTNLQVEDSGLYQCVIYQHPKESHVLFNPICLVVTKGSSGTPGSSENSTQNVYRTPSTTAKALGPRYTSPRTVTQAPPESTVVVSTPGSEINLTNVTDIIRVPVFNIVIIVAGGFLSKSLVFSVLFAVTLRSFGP
Protocol: (§1) The TREM-1-specific antibodies identified in primary screening were evaluated for cross-reactivity to cynomolgus TREM-1, as well as specificity to TREM-1 and not DAP12. TREM-1 hybridoma supernatants were tested for binding to human or cyno TREM-1 transiently expressed on HEK293 cells by FACS (harvests 1-6) or by […]™ (harvests 8-9). […] The following day, transfected HEK293 cells were transferred into 96-well FACS plates at 50,000 cells/well and incubated with normalized hybridoma supernatants at a final concentration of 2.5 μg/mL for 1 hour at 4° C. Cells were then pelleted by centrifugation, supernatant was removed by flicking, and wells were washed twice with 200 μL/well of FACS buffer. 5 μg/mL ALEXA FLUOR® 647 Goat anti-Human IgG Fc (Jackson ImmunoResearch) secondary detection antibody and 2.5 μg/mL 7-aminoactinomycin-D (Sigma) viability stain were incubated with the cells for 15 minutes at 4° C. Cells were pelleted by centrifugation, supernatant was removed by flicking, and wells were washed once more with 200 μL/well of FACS buffer. TREM-1 hybridoma supernatants showing human TREM-1- or cyno TREM-1-specific binding was detected by FACS on the BD ACCURI™ 06 flow cytometer with Intellicyt autosampler. The data was reported as geomean (GM) fold over irrelevant control antibody binding.

[3] = target: T1, human TREM-1 (TrigGering Receptor …); assay: FACS on HEK293 co-transfected with human TREM-1 and DAP12; hybridoma supernatant 2.5 ug/mL; geomean fold over irrelevant control antibody
Protocol: as §1

cyno TREM-1 on cells [4] = target: T2, cyno TREM-1 on cells; assay: cell-based or functional assay
[5] = target: T3, biotinylated human TREM-1-His antigen (human, UniProt Q9NP99 21-205, biotinylated in-house, site not stated); assay: limiting antigen assay, FACS on LumAvidin beads coated with 7.5 ng/mL biotinylated human TREM-1-His; antibody 5 ug/mL
T3 construct: Soluble TREM-1; also called b-huTREM-1-His; Soluble TREM1
Excerpt: TREM-1 Antibody Relative Affinity Ranking by Limiting Antigen Assay: TREM1 hybridoma supernatants were affinity-ranked within the panel by their binding kinetics to soluble TREM-1 in a limiting antigen assay using LUMAVIDIN® beads (Luminex) on FACS. Briefly, in-house biotinylated human TREM-1-His antigen (b-huTREM-1-His) was serially diluted in FACS buffer and combined with an equal volume of LUMAVIDIN® beads (different uniquely-barcoded bead for each antigen concentration), resulting in a 5-point 2-fold serial dilution series starting from a final b-huTREM-1-His antigen concentration of 30 ng/mL. The antigen-bead mixtures were plated across 3 wells in a 96-well FACS plate, then incubated for 30 minutes at room temperature protected from light. Beads were then pelleted by centrifugation, supernatant was removed by flicking, and wells were washed twice with 200 μL/well of FACS buffer. The different beads were then resuspended, pooled, and diluted in STABILGUARD® Immunoassay Stabilizer (SurModics) to block non-specific binding. Normalized TREM-1 hybridoma supernatants were combined with an equal volume of bead mixture in a FACS plate at a final concentration of 5 μg/mL test antibody to 0.5 μL beads/well. The plates were then shaken and incubated overnight for ˜18 hours at room temperature. Beads were then pelleted by centrifugation, supernatant was removed by flicking, and wells were washed twice with 200 μL/well of FACS buffer. ALEXA FLUOR® 488 Goat anti-Human IgG Fc secondary detection antibody (Jackson ImmunoResearch) was added at 5 μg/mL to the plates, shaken, and incubated for 15 minutes at room temperature protected from light. Beads were washed with FACS buffer, pelleted by centrifugation, supernatant was removed by flicking, and washed once more with FACS buffer. The beads were then resuspended and run on the BD ACCURI™ C6 Flow Cytometer with Intellicyt […]® autosampler.
The antibody binding signal correlates with antibody affinity; the degree of antibody binding to the target antigen TREM-1 correlates with the measured fluorescent intensity and thus allows a relative comparison of affinities across the panel.

cyno TREM-1-His protein = target: T4, cyno TREM-1-His protein (cynomolgus monkey, UniProt A0A2K5VHG8 21-204); assay: Octet HTX BLI; antibody captured via anti-human Fc, cyno TREM-1-His analyte, 1:1 model
T4 construct: also called cyno TREM1 (soluble)
T4 sequence: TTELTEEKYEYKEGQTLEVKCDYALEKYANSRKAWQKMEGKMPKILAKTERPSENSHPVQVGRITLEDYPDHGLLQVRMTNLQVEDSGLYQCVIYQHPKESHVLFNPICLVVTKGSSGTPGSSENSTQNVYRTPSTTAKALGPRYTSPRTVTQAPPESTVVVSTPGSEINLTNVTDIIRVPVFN
Protocol: (§2) TREM1 Antibody Human/Cynomolgus Affinity Gap Determination: TREM-1 antibodies with unique CDR3 sequences that had also shown better binding in limiting antigen screens than the benchmark antibody were analyzed for their affinity to human and cyno TREM-1. […] Briefly, TREM-1 hybridoma supernatants normalized to 10 μg/mL in DMEM null media were prepared by diluting 1:10 in OCTET® assay buffer (10 mM Tris, 0.1% Triton X-100, 150 mM NaCl, 1 mM CaCl₂, 0.1 mg/mL BSA, at pH 7.6) to a final test concentration of 1 μg/mL. Amine reactive second-generation AR2G Biosensors (Molecular Devices) were pre-incubated in 200 μL nanopore water for a minimum of 10 minutes at room temperature before use. The AR2G Biosensors were then activated for 5 minutes in a solution of 20 mM EDC (1-Ethyl-3-[3-dimethylaminopropyl] carbodiimide hydrochloride) (ForteBio) pre-mixed with 10 mM NHS (N-hydroxysulfosuccinimide) (ForteBio) in nanopore water. An in-house generated mouse anti-human Fc monoclonal antibody was coupled to the AR2G Biosensors at 10 μg/mL in 10 mM sodium acetate buffer at pH 5 for 5 minutes, quenched with 1M ethanolamine at pH 8.5 for 5 minutes, and then used to capture antibody from solution. […] The association of recombinant human TREM-1 with the antibody-loaded sensor was measured for 5 minutes, followed by dissociation in OCTET® buffer for 10 minutes. […]

[6] = target: T5, recombinant soluble human TREM-1-His protein (human, UniProt Q9NP99 21-205); assay: Octet HTX BLI; antibody captured via anti-human Fc, human TREM-1-His analyte, 1:1 model
T5 construct: Soluble TREM-1; also called recombinant human TREM-1
Protocol: as §2

B1: 34D1 (antibody, V domains shown)
VH: QVQLVQSGAEVKKPGASVKVSCKASGYTFTRYDINWVRQATGQGLEWMGWMNPNSGNSGSVQKFRGRVTMTRNTSIHIAYMELSSLRSEDTAVYYCARGGYTSSWRWYFDLWGRGTLVTVSS
VL: DIQMTQSPSSLSASVGDRVNITCQASQDIRKHLNWYQQKPGKAPNLLIYDAANLETGVPSRFSGSGSGTAFTFTISSLQPEDIATYYCQHYANLPITFGQGTRLEIKR
notes: also called TREM1 antibody 34D1
Ab IC50-Human PBMC (Trial 1), TNFα release after PGLYRP1/PGN [1]: 0.01 nM
Ab IC50-Human PBMC (Trial 2), TNFα release after PGLYRP1/PGN [1]: 0.0069 nM
Cyno TREM1 GM Fold (cyno TREM-1 on cells [2]): 228 fold
Human TREM1 GM Fold [3]: 246 fold
Ab IC50-Cyno PBMC (Trial 1), TNFα release after cyno PGLYRP1/PGN (cyno TREM-1 on cells [4]): 0.1 nM
Ab IC50-Cyno PBMC (Trial 2), TNFα release after cyno PGLYRP1/PGN (cyno TREM-1 on cells [4]): 0.0162 nM
Soluble TREM1 7.5 ng/mL (FACS Geomean) [5]: 80400

B2: 3E12 (antibody, V domains shown)
VH: QVQLVQSGAEVKKPGASVKVSCKASGYTFNGYYIHWVRQAPGQGLEWMGWLNPNSGGANYAQKFQGWVTMTRDTSISTAYMELSRLTSDDTAVYYCARDQRKTTVTPFEYWGQGTLVTVSS
VL: SYELTQPPSVSVSPGQTASITCSGDKLGERNVCWYQLKPGQSPILVIYQDNKRPSGIPERFSGSKSGNTAILTISGTQAMDEADYYCQAWDRNVVFGGGTKLTVLG
notes: also called TREM1 antibody 3E12
koff (cyno TREM-1-His protein): 0.000882 s⁻¹
kon (cyno TREM-1-His protein): 489000 M⁻¹ s⁻¹
koff [6]: 0.000263 s⁻¹
kon [6]: 462000 M⁻¹ s⁻¹
